The values that follow come from patent publication US6878713B2 (dated 2005).

Data set [1] is described as follows: in vivo. As to conditions: Swiss, mouse, po.
Data set [2] concerns Fluoroquinolone Sensitive Strains. Kind of data set: In-vitro antimicrobial test (MIC, two-fold serial agar dilution, NCCLS), Table 17. The format is cell-based. As to conditions: for MIC: Pseudomonas aeruginosa, read-out: MICs, P. aeruginosa 27853.
The conditions of data set [3]: oral, swiss mice, solution form.

With `COc1c(N2CCC(N)C(C)(C)C2)c(F)cc2c(=O)c(C(=O)O)cn(C3CC3)c12.Cl` (racemic) [Compound 18, (±)-1-Cyclopropyl-6-fluoro-1,4-dihydro-8-methoxy-7-(4-amino-3,3-dimethyl-1-piperidinyl)-4-oxo-quinoline-3-carboxylic acid hydrochloride], the 50% lethal dose (LD50) in data set [1] worked out at 650 mg/kg. The MIC in data set [2] stood at 6.25 µg/mL.

Consider “(±)-1-Cyclopropyl-6-fluoro-1,4-dihydro-8-methoxy-7-(4-amino-3,3-dimethyl-1-piperidinyl)-4-oxo-quinoline-3-carboxylic acid gluconate [Compound 20]”, for which the “median lethal dose (LD50)” value in data set [3] is 650 mg/kg.

For the compound `COc1c(N2CCC(N)C(C)(C)C2)c(F)cc2c(=O)c(C(=O)O)cn(C3CC3)c12.Cl` (single isomer, unassigned; (-)) [Compound 26, (−)-1-Cyclopropyl-6-fluoro-1,4-dihydro-8-methoxy-7-(4-amino-3,3-dimethyl-1-piperidinyl)-4-oxo-quinoline-3-carboxylic acid hydrochloride], in data set [2] (P. aeruginosa 27853), the MICs was determined as 6.25 µg/mL.

In the case of `COc1c(N2CCC(N)C(C)(C)C2)c(F)cc2c(=O)c(C(=O)O)cn(C3CC3)c12.Cl` (single isomer, unassigned; (+)) [Compound 22, (+)-1-Cyclopropyl-6-fluoro-1,4-dihydro-8-methoxy-7-(4-amino-3,3-dimethyl-1-piperidinyl)-4-oxo-quinoline-3-carboxylic acid hydrochloride], the MIC in data set [2] came out at 6.25 µg/mL.
